Tested on: Mycobacterium tuberculosis
Experiment: Activity at Mycobacterium tuberculosis recombinant riboflavin synthase after 30 mins by fluorescence assay
How it was run: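 Recombinant M. tuberculosis riboflavin synthase (1 μM) in 100 mM Tris-HCl pH 7.0, 100 mM NaCl, 5 mM DTT, 2% DMSO. 6,7-Dimethyl-8-ribityllumazine substrate was varied 3–60 μM and inhibitor 0–200 μM. Reactions were started with substrate. Riboflavin formation was monitored at 470 nm for 30 min at 27 °C. Velocity–substrate data for all inhibitor levels were fitted by nonlinear regression to alternative inhibition models.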

SMILES: O=C1Nc2ccc(S(=O)(=O)NCCCCC(F)(F)P(=O)(O)O)c3cccc1c23
- kcat: 0.0025 s⁻¹
